The entries are a selection whose mix differs from that of the whole data set. The source made the active and inactive calls. No stated cut-off is given here; in the data, active means inhibition above about 30%; inactive means below that, where a call was filed.

By UniProt entry, the sequences of proteins in these tests, tags left out.
UniProt P14416, whole entry: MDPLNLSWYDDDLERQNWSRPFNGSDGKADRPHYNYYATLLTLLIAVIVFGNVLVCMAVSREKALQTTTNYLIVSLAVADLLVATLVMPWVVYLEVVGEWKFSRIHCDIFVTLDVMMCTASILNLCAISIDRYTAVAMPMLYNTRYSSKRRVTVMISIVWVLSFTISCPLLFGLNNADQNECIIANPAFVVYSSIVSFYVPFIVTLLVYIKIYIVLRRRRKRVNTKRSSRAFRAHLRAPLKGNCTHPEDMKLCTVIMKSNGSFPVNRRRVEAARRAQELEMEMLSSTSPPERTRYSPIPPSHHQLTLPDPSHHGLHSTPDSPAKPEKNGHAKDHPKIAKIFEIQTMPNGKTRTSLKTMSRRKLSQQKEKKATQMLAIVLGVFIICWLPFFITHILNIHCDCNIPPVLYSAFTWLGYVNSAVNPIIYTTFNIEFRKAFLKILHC

For the assay, the target named is D(2) dopamine receptor (Homo sapiens) (UniProt P14416). The assay is described as follows: HTS Assay for Allosteric Antagonists of the Human D2 Dopamine Receptor: Primary Screen for Antagonists. Further: 0% is about no effect. As to conditions: HEK293 TREx D2 cells, calcium flux, dopamine EC80; at 10 µM; stronger effect = higher value. An excerpt:
NIH Chemical Genomics Center [NCGC] NIH Molecular Libraries Probe Centers Network [MLPCN] MLPCN Grant: NS064831-01 Assay Submitter (PI): David Sibley Dopamine receptors (DARs) are involved in the etiology and/or therapy of a number of neuropsychiatric and endocrine disorders. For instance, all receptor-based antiparkinsonian drugs work via stimulating the D2 DAR subtype whereas all FDA-approved antipsychotic agents are antagonists of this receptor. […] There are three different types of allosteric modulators that we are seeking, two of which will stimulate or augment receptor signaling, allosteric agonists and potentiators, while the third, allosteric antagonists, will attenuate receptor signaling. The present primary screening assay measures compound antagonism after an EC80 addition of dopamine by tracking calcium flux in a […], inducible Hek293 Trex D2 cell line.
Freshly passaged cells are plated in 1536 well black, clear bottom plates at a density of 4000 cells/well in 3 ul of complete media containing 1x tetracycline inducer. After an overnight incubation at 30 C in 5% CO2, cells are loaded with 2 ul of the no wash Calcium Assay Kit (ABD Bioquest) and incubated at room temperature for 30 to 90 minutes. Agonist read: A 10 cycle (1 second/cycle) baseline measurement is taken and then the FDSS online 1536 pintool delivers 23 nl of compound library (as well as dopamine controls) to the plate. The plate is measured for kinetically at 1 cycle/sec for 180 seconds. Following the 180 second read, 1 ul of an EC80 (negative modulation assay) is delivered by an onboard pipette head. Measurements are taken kinetically for an additional 180 seconds.
As to `Cc1nc2ccc3ccccc3c2s1.O=[N+]([O-])c1cc([N+](=O)[O-])c(O)c([N+](=O)[O-])c1`, the inhibition is inactive: 3.95%.

For the compound `O=[N+]([O-])c1cc([N+](=O)[O-])c(-n2nnc3ccccc32)c([N+](=O)[O-])c1`, the inhibition was inactive: 29.1%.

Turning to `CP(=O)(Nc1ccc(SC(F)(F)F)cc1)Oc1ccccc1` (stereo not drawn), the inhibition is inactive: 6.57%.

Turning to `CN1CCCCC1COC(=O)C1(O)c2ccccc2CCc2ccccc21` (stereo not drawn), the inhibition is inactive: 10.6%.

As to `COc1ccccc1OP(C)(=O)Nc1c(C)cccc1C` (stereo not drawn), the inhibition is inactive: -5.81%.

In the case of `CC1=C2N=C(C=C3N=C(C(C)=C4[N-][C@@](C)([C@@H]5N=C1[C@](C)(CCC(=O)NC[C@@H](C)OP(=O)([O-])O[C@H]1[C@@H](O)[C@@H](n6cnc7cc(C)c(C)cc76)O[C@@H]1CO)[C@H]5CC(N)=O)[C@@](C)(CC(N)=O)[C@@H]4CCC(N)=O)[C@@](C)(CC(N)=O)[C@@H]3CCC(N)=O)C(C)(C)[C@@H]2CCC(N)=O.[C-]#N.[Co+3]`, the inhibition was inactive: -12.8%.

For `O=[N+]([O-])c1cc([N+](=O)[O-])c(Nc2nnnn2CCO)c([N+](=O)[O-])c1`, the inhibition is inactive: -2.42%.

Regarding `CC1=NCCc2c1[nH]c1ccccc21.O=[N+]([O-])c1cc([N+](=O)[O-])c(O)c([N+](=O)[O-])c1`, the inhibition is inactive: 0.132%.

With `Cc1ccc(C)c(NP(C)(=O)Oc2ccccc2)c1` (stereo not drawn), the inhibition was inactive: -3.91%.

As for `Cc1cc(C)cc(OP(C)(=O)Nc2ccccn2)c1` (stereo not drawn), the inhibition was inactive: -10.9%.

For the compound `CP(=O)(Nc1cccc(Br)c1)Oc1ccccc1` (stereo not drawn), the inhibition was inactive: -0.485%.

In the case of `CCOC(=O)c1ccc(NP(C)(=O)Oc2cc(C)cc(C)c2)cc1` (stereo not drawn), the inhibition is inactive: -7.08%.

`CCN(CC)CCCOC(=O)C(O)(c1ccccc1)c1ccccc1`: the inhibition is inactive: 1.55%.

Turning to `Cc1cc(C)cc(OP(C)(N)=O)c1` (stereo not drawn), the inhibition was inactive: 6.64%.

`COc1ccc(OP(C)(=O)Nc2cccc(F)c2)cc1` (stereo not drawn): the inhibition was inactive: 2.66%.

Turning to `COc1ccccc1OP(C)(=O)Nc1ccc(C)cc1` (stereo not drawn), the inhibition is inactive: -3.25%.

For the compound `Cc1ccc(NP(C)(=O)Oc2ccccc2)c(C)c1` (stereo not drawn), the inhibition is inactive: 1.72%.

As to `CCOC(=O)c1ccc(NP(C)(=O)Oc2ccccc2)cc1` (stereo not drawn), the inhibition is inactive: 16.2%.

On to `O=[N+]([O-])c1ccc2c(c1)C=Nc1ccccc1O2`, for which the inhibition is inactive: -12.8%.

With `CC(C)(C)c1ccc(OP(C)(=O)Nc2ccc(SC(F)(F)F)cc2)cc1` (stereo not drawn), the inhibition is inactive: 4.78%.

With `Cc1cccc(C)c1OP(C)(N)=O` (stereo not drawn), the inhibition was inactive: 8.98%.

For the compound `O=[N+]([O-])c1cc([N+](=O)[O-])c(Nc2cccnc2)c([N+](=O)[O-])c1`, the inhibition is inactive: 18.8%.

As to `CP(=O)(Nc1ccccc1Br)Oc1ccccc1` (stereo not drawn), the inhibition is inactive: -9.32%.

Take `COc1ccccc1OP(C)(=O)Nc1ccccc1` (stereo not drawn): the inhibition is inactive: -12.1%.

With `CP(=S)(Nn1cnnc1)Oc1ccccc1` (stereo not drawn), the inhibition is inactive: -0.325%.

Take `CP(=O)(Nc1ccccn1)Oc1ccc(Cl)cc1` (stereo not drawn): the inhibition was inactive: -24.7%.

As for `CCOC(=O)c1ccc(NP(C)(=O)Oc2ccc(OC)cc2)cc1` (stereo not drawn), the inhibition was inactive: -24.1%.

Take `CP(=O)(NC(=O)Nc1ccccc1)Oc1ccccc1` (stereo not drawn): the inhibition is inactive: 9.02%.

As to `CCc1ccc(OP(C)(=O)N2CCN(c3ccc([N+](=O)[O-])cc3)CC2)cc1` (stereo not drawn), the inhibition was inactive: -0.152%.

`Cc1cc(C)cc(OP(C)(=O)Nc2ccc(SC(F)(F)F)cc2)c1` (stereo not drawn): the inhibition was inactive: -5.19%.

With `CP(=O)(Nc1ccc(SC(F)(F)F)cc1)Oc1ccc(Cl)cc1` (stereo not drawn), the inhibition was inactive: 11.5%.

For the compound `Cc1cccc(C)c1OP(C)(=O)Nc1ccc(SC(F)(F)F)cc1` (stereo not drawn), the inhibition was inactive: 28.6%.

`CP(=O)(Oc1ccccc1)OC(c1ccccc1)C(F)(F)F` (stereo not drawn): the inhibition is inactive: -4%.

Regarding `CN(C)C(=O)c1c([N+](=O)[O-])cc([N+](=O)[O-])cc1[N+](=O)[O-]`, the inhibition was inactive: 15%.

For `COc1ccccc1OP(C)(=O)Nc1ccccc1Br` (stereo not drawn), the inhibition was inactive: 16.5%.

In the case of `CC(C)(C)c1ccc(OP(C)(=O)O)cc1`, the inhibition was inactive: 4.35%.

As for `CP(=O)(Nc1ccc(Cl)cc1)Oc1ccc(F)cc1` (stereo not drawn), the inhibition is inactive: -5.08%.

Regarding `COc1ccccc1OP(C)(=O)Nc1c(C)n(C)n(-c2ccccc2)c1=O` (stereo not drawn), the inhibition was inactive: 8.04%.

Take `O=C(OCCCN1CCCC1)C(O)(c1ccccc1)C1CCCCC1` (stereo not drawn): the inhibition was inactive: 16.5%.

For the compound `CP(=O)(Oc1ccccc1)N1CCOC1=O` (stereo not drawn), the inhibition is inactive: -9.92%.

Turning to `CCc1ccc(OP(C)(=O)Nc2cccnc2)cc1` (stereo not drawn), the inhibition was inactive: 3.02%.

For the compound `CCN(CC)CC(O)COC(=O)C(O)(c1ccccc1)C1CCCCC1` (stereo not drawn), the inhibition was inactive: -2.89%.

For the compound `COc1ccc(OP(C)(=O)Nc2ccc(Br)cc2)cc1` (stereo not drawn), the inhibition is inactive: -4.43%.

`CCOC(=O)c1ccc(NP(C)(=O)Oc2ccc(Cl)cc2)cc1` (stereo not drawn): the inhibition was inactive: -5.27%.

As for `CP(=O)(OC12CC3CC(CC(C3)C1)C2)OC12CC3CC(CC(C3)C1)C2`, the inhibition is inactive: 13.4%.

For the compound `CP(=O)(Nc1ccc(Cl)cc1Cl)Oc1ccccc1` (stereo not drawn), the inhibition was inactive: 1.72%.

`CP(=O)(OCCOc1ccccc1)OCCOc1ccccc1`: the inhibition was inactive: 17.1%.

As to `Cc1nc2ccc3ccccc3c2o1.O=[N+]([O-])c1cc([N+](=O)[O-])c(O)c([N+](=O)[O-])c1`, the inhibition is inactive: -8.85%.

Consider `COc1ccccc1OP(C)(=O)Nc1ccc(C)c(C)c1` (stereo not drawn), for which the inhibition is inactive: -9.04%.

Turning to `COc1ccc(OP(C)(=O)Nc2ccccc2Br)cc1` (stereo not drawn), the inhibition was inactive: -1.35%.

As to `Cc1cc(C)cc(OP(C)(=O)Nc2cccc(C(F)(F)F)c2)c1` (stereo not drawn), the inhibition was inactive: -15.4%.

As to `CP(=O)(Nc1ccccn1)Oc1ccccc1` (stereo not drawn), the inhibition is inactive: -15.3%.

Consider `COc1ccccc1OP(C)(=O)Nc1ccc(C)cc1C` (stereo not drawn), for which the inhibition was inactive: -13.1%.

For the compound `CCc1ccc(OP(C)(=O)O)cc1`, the inhibition was inactive: 4.45%.

With `Cc1c(NP(C)(=O)Oc2ccc(C(C)C)cc2)c(=O)n(-c2ccccc2)n1C` (stereo not drawn), the inhibition is inactive: -16.3%.

For `O=[N+]([O-])c1cc([N+](=O)[O-])c(Nc2ccccn2)c([N+](=O)[O-])c1`, the inhibition is inactive: -4.17%.

`COc1ccc(OP(C)(=O)Nc2ccccn2)cc1` (stereo not drawn): the inhibition was inactive: 8.57%.

On to `CN(C)CCOC(=O)C(O)(c1ccccc1)C1CCCC1` (stereo not drawn), for which the inhibition was active: 51.7%.

Turning to `COc1ccccc1OP(C)(=O)Nc1ccc(Br)cc1` (stereo not drawn), the inhibition is inactive: 2%.

As to `O=C(OCCN1CCN(CCOCc2ccccc2)CC1)C(O)(c1ccccc1)c1ccccc1`, the inhibition is inactive: 1.94%.

As for `CP(=O)(Nc1ccccc1F)Oc1ccccc1` (stereo not drawn), the inhibition was inactive: -2.53%.

For `CC(C)c1ccc(OP(C)(=O)Nc2ccc(SC(F)(F)F)cc2)cc1` (stereo not drawn), the inhibition was inactive: 9.76%.

As for `CP(=O)(Nc1ccccc1)Oc1ccc(F)cc1` (stereo not drawn), the inhibition is inactive: 22.2%.

Take `CCCCCOc1ccc(NP(C)(=O)Oc2ccc(Cl)cc2Cl)cc1` (stereo not drawn): the inhibition is inactive: -19.7%.

`CCOC(=O)c1ccc(NP(C)(=O)Oc2ccc(F)cc2)cc1` (stereo not drawn): the inhibition is inactive: -3.74%.

Regarding `COc1ccc(OP(C)(=O)Nc2ccc(SC(F)(F)F)cc2)cc1` (stereo not drawn), the inhibition is inactive: 7.99%.

Regarding `O=[N+]([O-])c1ccc(OP2(=O)COCCO2)cc1` (stereo not drawn), the inhibition was inactive: 5.69%.

In the case of `Cc1cc(-c2cccc3ccccc23)c(C)cn1.O=[N+]([O-])c1cc([N+](=O)[O-])c(O)c([N+](=O)[O-])c1`, the inhibition was inactive: -6.19%.

On to `CN(C)CCOC(=O)C(O)(c1ccccc1)C1CCCCC1` (stereo not drawn), for which the inhibition is active: 34%.

`COc1ccc(NP(C)(=O)Oc2ccccc2OC)cc1` (stereo not drawn): the inhibition was inactive: -10.1%.

As to `COc1ccc(OP(C)(=O)Nc2cccc(Br)c2)cc1` (stereo not drawn), the inhibition is inactive: -9.37%.

For the compound `Cc1ccccc1NP(C)(=O)Nc1ccccc1C`, the inhibition was inactive: -19.9%.

Regarding `CP(=O)(Nc1ccc(SC(F)(F)F)cc1)Oc1ccc(F)cc1` (stereo not drawn), the inhibition is inactive: -0.0413%.

These data come from PubChem BioAssay AID485344 (National Center for Advancing Translational Sciences (NCATS), 2010).
